Reference: publication PMC10600185, “Development and pharmaceutical investigation of novel cervical cancer-targeting and redox-responsive melittin conjugates” (Scientific Reports, 2023)
Converted amounts (≈) assume the structure as drawn.

Assays:
[1] = MTT cytotoxicity assay, NSF; assay type: cell-based; conditions: human, normal skin fibroblast (NSF) cells, 24 h treatment, serial dilutions 256–1 µg/mL, concentration by modified Mel peptide content, mean of three replicates
Method: (§1) C-33A ([…], ATCC), HeLa ([…], ATCC), 3T3 (CRL-1658™, ATCC), Normal Skin Fibroblast (CRL-2091™, ATCC) and MCF-7 (HTB-22™, ATCC) cell lines were cultured in complete EMEM, DMEM, DMEM, EMEM, and EMEM (containing 1% Pen/Strep antibiotic and 10% FBS), respectively. Cells from the different lines were seeded at a density of 5 × 10^4 cells/well in 100 µL medium placed in a flat-bottom 96-well plate and incubated at 5% CO2 and 37 °C. After 24 h, the medium was discarded from the 96-well plate. Serial dilutions of peptide/conjugate (i.e., 256–1 µg/mL) were prepared in triplicate in 100 µL complete medium then added onto each well and incubated at 5% CO2 and 37 °C for 24 h. The cytotoxicity was determined by MTT test (MTT, Cell Proliferation Kit, Roche) and measured at 550–690 nm on a microplate reader. The cell cytotoxicity was calculated with respect to control groups treated with only complete medium.

[2] = MTT cytotoxicity assay, 3T3; assay type: cell-based; conditions: mouse, 3T3 cells (embryonic fibroblasts), 24 h treatment, serial dilutions 256–1 µg/mL, concentration by modified Mel peptide content, mean of three replicates
Method: as §1

CC[C@H](C)[C@H](NC(=O)CN)C(=O)NCC(=O)N[C@@H](C)C(=O)N[C@H](C(=O)N[C@@H](CC(C)C)C(=O)N[C@@H](CCCCN)C(=O)N[C@H](C(=O)N[C@@H](CC(C)C)C(=O)N[C@H](C(=O)N[C@H](C(=O)NCC(=O)N[C@@H](CC(C)C)C(=O)N1CCC[C@H]1C(=O)N[C@@H](C)C(=O)N[C@@H](CC(C)C)C(=O)N[C@H](C(=O)N[C@@H](CO)C(=O)N[C@@H](Cc1c[nH]c2ccccc12)C(=O)N[C@H](C(=O)N[C@@H](CCCCN)C(=O)N[C@@H](CCCNC(=N)N)C(=O)N[C@@H](CCCCN)C(=O)N[C@@H](CCCNC(=N)N)C(=O)N[C@@H](CCC(N)=O)C(=O)N[C@@H](CCC(N)=O)C(N)=O)[C@@H](C)CC)[C@@H](C)CC)[C@@H](C)O)[C@@H](C)O)C(C)C)C(C)C [Mel, Melittin]
IC50 at 24 h [1]: 32.2 µg/mL (≈ 11.3 µM) | IC50 at 24 h [2]: 73 µg/mL (≈ 25.6 µM)
